For one series, the target named is P-gp (Homo sapiens, UniProt P08183). Particulars: Caco‐2, digoxin 10 μM alone (vehicle control).
The target of the next series is human BCRP (Homo sapiens, UniProt Q9UNQ0). Particulars: novobiocin 500 µM.

Amino acid sequences for entries named in this document (tags omitted). A change or cut given only in a name is not applied to a line headed by its entry.
UniProt P08183, whole entry: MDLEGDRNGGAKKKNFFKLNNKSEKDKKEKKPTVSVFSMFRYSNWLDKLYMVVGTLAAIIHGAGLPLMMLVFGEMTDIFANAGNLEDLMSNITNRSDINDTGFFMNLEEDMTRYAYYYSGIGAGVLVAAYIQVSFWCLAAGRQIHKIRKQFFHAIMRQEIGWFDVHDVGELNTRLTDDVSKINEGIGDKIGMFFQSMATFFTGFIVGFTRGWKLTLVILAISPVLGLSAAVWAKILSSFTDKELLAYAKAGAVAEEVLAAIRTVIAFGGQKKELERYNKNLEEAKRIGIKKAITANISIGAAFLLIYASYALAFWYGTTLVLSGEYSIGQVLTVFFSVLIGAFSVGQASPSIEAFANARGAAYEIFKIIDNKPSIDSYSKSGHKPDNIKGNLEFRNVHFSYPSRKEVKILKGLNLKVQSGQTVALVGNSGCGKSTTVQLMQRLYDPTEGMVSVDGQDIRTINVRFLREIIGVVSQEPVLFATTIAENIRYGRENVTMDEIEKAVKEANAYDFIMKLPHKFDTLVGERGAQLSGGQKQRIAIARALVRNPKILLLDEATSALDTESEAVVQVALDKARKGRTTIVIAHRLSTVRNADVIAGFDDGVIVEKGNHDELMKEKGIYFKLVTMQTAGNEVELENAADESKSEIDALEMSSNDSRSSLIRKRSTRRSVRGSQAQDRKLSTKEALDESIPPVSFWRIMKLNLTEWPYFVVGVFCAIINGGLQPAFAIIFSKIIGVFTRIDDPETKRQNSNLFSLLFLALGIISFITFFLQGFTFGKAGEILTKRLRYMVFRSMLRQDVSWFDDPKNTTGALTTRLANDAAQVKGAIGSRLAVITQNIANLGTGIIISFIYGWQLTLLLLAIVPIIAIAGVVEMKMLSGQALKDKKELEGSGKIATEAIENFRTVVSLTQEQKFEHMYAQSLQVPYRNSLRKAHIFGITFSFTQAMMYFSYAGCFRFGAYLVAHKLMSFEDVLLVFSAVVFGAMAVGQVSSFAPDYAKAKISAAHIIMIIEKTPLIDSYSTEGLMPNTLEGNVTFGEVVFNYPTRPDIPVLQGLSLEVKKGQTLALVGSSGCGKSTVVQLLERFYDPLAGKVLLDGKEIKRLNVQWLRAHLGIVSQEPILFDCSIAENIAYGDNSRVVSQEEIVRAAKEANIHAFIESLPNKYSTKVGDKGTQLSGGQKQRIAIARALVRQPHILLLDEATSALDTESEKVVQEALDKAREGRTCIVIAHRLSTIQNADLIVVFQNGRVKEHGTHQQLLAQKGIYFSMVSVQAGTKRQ
UniProt Q9UNQ0: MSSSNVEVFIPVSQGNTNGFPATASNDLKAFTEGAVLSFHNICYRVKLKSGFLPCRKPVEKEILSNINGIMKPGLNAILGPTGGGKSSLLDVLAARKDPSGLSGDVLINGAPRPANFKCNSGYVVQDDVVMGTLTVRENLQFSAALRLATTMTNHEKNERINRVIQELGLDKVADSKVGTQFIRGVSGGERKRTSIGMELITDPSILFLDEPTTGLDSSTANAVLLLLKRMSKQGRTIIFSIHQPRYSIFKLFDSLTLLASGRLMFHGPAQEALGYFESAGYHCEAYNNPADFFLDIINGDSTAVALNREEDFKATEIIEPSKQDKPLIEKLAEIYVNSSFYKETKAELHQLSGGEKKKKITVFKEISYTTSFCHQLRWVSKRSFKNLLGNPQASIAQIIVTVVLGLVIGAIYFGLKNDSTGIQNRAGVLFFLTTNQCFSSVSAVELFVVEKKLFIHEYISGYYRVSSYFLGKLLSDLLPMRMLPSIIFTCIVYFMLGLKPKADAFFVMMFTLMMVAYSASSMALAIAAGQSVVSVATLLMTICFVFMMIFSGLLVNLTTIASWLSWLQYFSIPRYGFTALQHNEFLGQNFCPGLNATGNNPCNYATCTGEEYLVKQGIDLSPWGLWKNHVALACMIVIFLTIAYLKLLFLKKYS

`C[C@H]1O[C@@H](O[C@H]2[C@@H](O)C[C@H](O[C@H]3[C@@H](O)C[C@H](O[C@H]4CC[C@@]5(C)[C@H](CC[C@@H]6[C@@H]5C[C@@H](O)[C@]5(C)[C@@H](C7=CC(=O)OC7)CC[C@]65O)C4)O[C@@H]3C)O[C@@H]2C)C[C@H](O)[C@@H]1O` [Digoxin, reference compound]: the “Papp A‐B of digoxin” value on P-gp is listed as 0.700 ± 0.049 ×10^−6 cm s^−1.

Consider `CO[C@@H]1[C@@H](OC(N)=O)[C@@H](O)[C@H](Oc2ccc3c(O)c(NC(=O)c4ccc(O)c(CC=C(C)C)c4)c(=O)oc3c2C)OC1(C)C` [Novobiocin], for which the “Suppression of LFY uptake” value on human BCRP was found to be 98.9%.

The values above are taken from PMC8524670 (Pharmacology Research & Perspectives, 2021).
